# Binding of CDR-mutated scFvs to a peptide of the spike HR2 region

Data: MIT Lincoln Laboratory AlphaSeq set, Engelhart et al. 2022, doi:10.1038/s41597-022-01779-4, as distributed in FLAb.

Antigen: PDVDLGDISGINAS, a 14-residue peptide of the SARS-CoV-2 spike HR2 region.

Each scFv is VH, a 15-residue (Gly4Ser)3 linker, VL, as in the parent Ab-14, and differs from it in the CDRs of the light chain only.
VH: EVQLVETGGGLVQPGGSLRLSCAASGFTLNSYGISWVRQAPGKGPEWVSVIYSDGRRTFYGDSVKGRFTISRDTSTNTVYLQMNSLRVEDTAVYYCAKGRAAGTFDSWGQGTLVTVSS
VL: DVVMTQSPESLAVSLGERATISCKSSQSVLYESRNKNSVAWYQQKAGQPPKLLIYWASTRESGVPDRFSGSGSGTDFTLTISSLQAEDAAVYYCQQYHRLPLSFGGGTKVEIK

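The parent was found by panning a naive human phage display library on the peptide. In library AAYL50, one, two or three CDR residues were substituted; doubles and triples were drawn at random. Affinity was read by AlphaSeq, a pooled yeast mating assay with surface-displayed partners. The frequency of each diploid, read from paired DNA barcodes, reflects how well the two displayed proteins bind. Each replicate has its own calibration line, from reference interactions of the BCL2 family. Mating was done three times.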

The parent's light chain CDRs are KSSQSVLYESRNKNSVA, WASTRES, QQYHRLPLS; each variant's own CDRs replace them letter for letter.
The read-out is the apparent dissociation constant on a log10 scale (nM): the lower, the stronger.
The mean shown is taken over the replicates in which the pair was detected.
Where no diploid with the target was found in any replicate, the entry reads "nd": below detection, most likely a poor binder, though not proof of it.
Entries are sorted by rising average, undetected variants last.
Empty control strains, which show no peptide, gave a signal in 18% of pairings with library AAYL50; the median was 4.19 and 95% of these signals were weaker than 2.99. No background was subtracted. The control count says in how many pairings with the empty strains this scFv gave a signal.

| # | mean, log10 nM | seen in | signal with controls | CDR-L1 | CDR-L2 | CDR-L3 |
|---|---|---|---|---|---|---|
| 1 | 0.02 | 3 of 3 | 7 of 9 | KSSQSVPYESRNKNSVA | KASTRES | QQYHRLPLS |
| 2 | 0.31 | 3 of 3 | 4 of 9 | KSSQSVLYESRNHNSVA | FASTRVS | QQYHRLPLS |
| 3 | 0.50 | 3 of 3 | 1 of 9 | KSSQSWLYESRNKNSVA | TASERES | QQYHRLPLS |
| 4 | 0.93 | 3 of 3 | 0 of 9 | KSITDVLYESRNKNSVA | WASTRES | QQYHRLPLS |
| 5 | 0.95 | 3 of 3 | 1 of 9 | KSSQSVSWYSRNKNSVA | WASTRES | QQYHRLPLS |
| 6 | 0.97 | 3 of 3 | 3 of 9 | KSSQSVLYESRNKNSVA | WASTRES | AQYHVLPPS |
| 7 | 0.98 | 3 of 3 | 0 of 9 | KSSQKVLYESRNQNSVA | WASQRES | QQYHRLPLS |
| 8 | 1.05 | 3 of 3 | 4 of 9 | KSSLSVLYESRSHNSVA | WASTRES | QQYHRLPLS |
| 9 | 1.05 | 3 of 3 | 4 of 9 | KSSQSVLYESCNKNSVA | WASTRES | QQYHRVPLS |
| 10 | 1.22 | 3 of 3 | 2 of 9 | KSSLSVLYESRNKNSVA | WASTRTS | QQYHRLPLM |
| 11 | 1.31 | 3 of 3 | 3 of 9 | KSMQSVLYESVNKNSVA | WASTRTS | QQYHRLPLS |
| 12 | 1.47 | 3 of 3 | 2 of 9 | KSSQSVLYEMRNKNSVA | WASTREA | WQYHRLPLS |
| 13 | 1.62 | 2 of 3 | 0 of 9 | KSSTSVLYESRNKNSVA | WAYTRES | QQYHRLKLS |
| 14 | 1.71 | 3 of 3 | 1 of 9 | KSSQSVLYESRWKNSVA | WASTRAS | CQYHRLPLS |
| 15 | 1.73 | 3 of 3 | 1 of 9 | KKSQSVLYESRNGNSVA | WASTREP | QQYHRLPLS |
| 16 | 1.79 | 3 of 3 | 0 of 9 | KHSQSVLDESRNKNSVA | WASTRES | QQAHRLPLS |
| 17 | 2.00 | 3 of 3 | 2 of 9 | NSSQSVLYESRNKNSVA | WASMREW | QQYHRLPLS |
| 18 | 2.23 | 3 of 3 | 2 of 9 | ESSCSVLYESRNKNSVA | WASTRES | QQYHRLPLS |
| 19 | 2.63 | 3 of 3 | 8 of 9 | KPSVSVLYEGRNKNSVA | WASTRES | QQYHRLPLS |
| 20 | 2.76 | 1 of 3 | 0 of 9 | KSSQSVLYESRNKNSVA | WASTGDM | QQYHRLPLS |
| 21 | 2.86 | 1 of 3 | 4 of 9 | KSSCQVLYESRNKNSVA | WASTRES | QQYHRLPNS |
| 22 | 2.90 | 3 of 3 | 3 of 9 | KSSLSVLYESRLKNSVA | WASTREF | QQYHRLPLS |
| 23 | 3.34 | 3 of 3 | 5 of 9 | KSSQSVLYESRNKNSVA | WASGRES | QQYHTLPRS |
| 24 | 3.43 | 2 of 3 | 3 of 9 | KSSQSVLYDSRNKNSVA | WASTQES | QQYHRLPVS |
| 25 | 3.57 | 2 of 3 | 0 of 9 | KQSQSVLYEVRNKNSVA | WASTREY | QQYHRLPLS |
| 26 | 3.58 | 1 of 3 | 0 of 9 | KSIQSVLYESRCKNSVA | WASTRES | QQYHRCPLS |
| 27 | 3.63 | 1 of 3 | 0 of 9 | KSSKSVLYESRNKNSVA | WASTRAS | QQYARLPLS |
| 28 | 3.90 | 3 of 3 | 3 of 9 | KSSESVLYESRNKNSVA | WASTRES | QQYVRLFLS |
| 29 | 4.21 | 3 of 3 | 3 of 9 | TSSQSVLYESRNKNSVE | WASMRES | QQYHRLPLS |
| 30 | 4.28 | 1 of 3 | 1 of 9 | KSSQSVLYESREKNSVA | WAWTRES | QQYVRLPLS |
| 31 | 4.32 | 1 of 3 | 4 of 9 | KSSQSVLYESRNKNSVA | WASHSES | QQYHRLPLC |
| 32 | 4.37 | 2 of 3 | 1 of 9 | KSSQGVLYESRNKNSNA | WASTREK | QQYHRLPLS |
| 33 | 4.56 | 1 of 3 | 1 of 9 | KSSQMVLYESRNKNSVA | WASTRES | HQYHRNPLS |
| 34 | 4.61 | 2 of 3 | 2 of 9 | KSSQSVWYESRNKNSVA | WAVTRES | QWYHRLPLS |
| 35 | 4.63 | 1 of 3 | 2 of 9 | PSSQSFLYESRNANSVA | WASTRES | QQYHRLPLS |
| 36 | 4.86 | 1 of 3 | 3 of 9 | KSSQSVLYEVRNKNSVA | PASTMES | QQYHRLPLS |
| 37 | 5.40 | 3 of 3 | 4 of 9 | KSSQSVLYESRNKNSVA | WAETRES | MQYHRLPGS |
| 38 | 5.76 | 1 of 3 | 6 of 9 | KSSQSVLYESRNKNSVA | WFVTRES | QQYHRYPLS |
| 39 | nd | 0 of 3 | 0 of 9 | CSSQSVLYESRNKNSVA | WMSTDES | QQYHRLPLS |
| 40 | nd | 0 of 3 | 2 of 9 | KSSDSVLYESRNKNSVA | WASTRES | QQYHRLQCS |
| 41 | nd | 0 of 3 | 0 of 9 | KSSQSVLYEAHNKNSVA | WASERES | QQYHRLPLS |
| 42 | nd | 0 of 3 | 0 of 9 | KSSQSVLYERRNKNSVA | WASTRDS | NQYHRLPLS |
| 43 | nd | 0 of 3 | 0 of 9 | KSSQSYLYESRNKNSVA | WASTRES | QQYHRCPLR |
| 44 | nd | 0 of 3 | 2 of 9 | KSSQSVLYESRNKNQWA | WASTDES | QQYHRLPLS |
| 45 | nd | 0 of 3 | 1 of 9 | KDSQSVLYESRNKNSVA | WASTRES | QQYHEDPLS |
| 46 | nd | 0 of 3 | 0 of 9 | PSSQSVMYESRNKNSVA | WASTRES | QQYHRLILS |
| 47 | nd | 0 of 3 | 2 of 9 | KSSQSVLYESRNPNSVA | RASTDES | QQYHRLPLS |
| 48 | nd | 0 of 3 | 1 of 9 | KSAQSVLYPSRNKNSVA | WASTRES | QQYHRLSLS |
| 49 | nd | 0 of 3 | 0 of 9 | KSSQSVLYEFRNKNWVA | WASTRES | QQYNRLPLS |
| 50 | nd | 0 of 3 | 0 of 9 | KSSQSVLYESRNANSVA | WAPGRES | QQYHRLPLS |
| 51 | nd | 0 of 3 | 1 of 9 | KSSQSVLYESRNKNSVT | WASTRES | DQYHRLPLP |
| 52 | nd | 0 of 3 | 0 of 9 | KSSQSYLQESRNKNSVA | WASTRES | QQYHRLPIS |
| 53 | nd | 0 of 3 | 0 of 9 | KSQQSVLYESRNKNWVA | WASTRES | QQYERLPLS |

Picked from the list: the 6 lowest averages where every replicate gave a value.

| CDR-L1 | CDR-L2 | CDR-L3 | mean, log10 nM | seen in | signal with controls |
|---|---|---|---|---|---|
| KSSQSVPYESRNKNSVA | KASTRES | QQYHRLPLS | 0.02 | 3 of 3 | 7 of 9 |
| KSSQSVLYESRNHNSVA | FASTRVS | QQYHRLPLS | 0.31 | 3 of 3 | 4 of 9 |
| KSSQSWLYESRNKNSVA | TASERES | QQYHRLPLS | 0.50 | 3 of 3 | 1 of 9 |
| KSITDVLYESRNKNSVA | WASTRES | QQYHRLPLS | 0.93 | 3 of 3 | 0 of 9 |
| KSSQSVSWYSRNKNSVA | WASTRES | QQYHRLPLS | 0.95 | 3 of 3 | 1 of 9 |
| KSSQSVLYESRNKNSVA | WASTRES | AQYHVLPPS | 0.97 | 3 of 3 | 3 of 9 |